Reference: patent US11725005B2

System: c-Abl2

Cc1ccc(NC(=O)c2ccc(CN3CCN(C)CC3)cc2)cc1Nc1nccc(-c2cncc(-c3cnns3)c2)n1
IC50: > 1 µM
